Chains of the proteins cited; added tags and fusions are not shown.
UniProt P50750, whole entry: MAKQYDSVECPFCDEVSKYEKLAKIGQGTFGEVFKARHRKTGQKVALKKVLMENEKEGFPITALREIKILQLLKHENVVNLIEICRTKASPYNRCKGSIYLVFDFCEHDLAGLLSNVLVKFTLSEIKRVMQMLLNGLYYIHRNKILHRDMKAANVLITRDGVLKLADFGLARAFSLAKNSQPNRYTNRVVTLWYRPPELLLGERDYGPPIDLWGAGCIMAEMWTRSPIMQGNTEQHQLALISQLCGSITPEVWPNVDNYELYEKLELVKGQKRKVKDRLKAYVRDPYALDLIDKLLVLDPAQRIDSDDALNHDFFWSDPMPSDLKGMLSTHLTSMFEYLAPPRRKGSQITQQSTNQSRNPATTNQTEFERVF

In ChEMBL document CHEMBL1800061 (J Med Chem, 2010):

Target: CDK9/cyclin T1 (Homo sapiens, UniProt P50750)
Test: Inhibition of CDK9/cyclinT assessed as amount of ATP released by luciferase activity based PKLight assay
Type: protein-complex assay

For CC(C)c1cnn2c(NCc3ccccc3)cc(N[C@@H](CO)[C@H](O)CO)nc12, the IC50 was 0.09 µM.
